# Measured values: PubChem BioAssay AID504411 (The Scripps Research Institute Molecular Screening Center, 2011)
# Amino acid sequences for entries named in this document (tags omitted).
# UniProt Q8NCG7, whole entry: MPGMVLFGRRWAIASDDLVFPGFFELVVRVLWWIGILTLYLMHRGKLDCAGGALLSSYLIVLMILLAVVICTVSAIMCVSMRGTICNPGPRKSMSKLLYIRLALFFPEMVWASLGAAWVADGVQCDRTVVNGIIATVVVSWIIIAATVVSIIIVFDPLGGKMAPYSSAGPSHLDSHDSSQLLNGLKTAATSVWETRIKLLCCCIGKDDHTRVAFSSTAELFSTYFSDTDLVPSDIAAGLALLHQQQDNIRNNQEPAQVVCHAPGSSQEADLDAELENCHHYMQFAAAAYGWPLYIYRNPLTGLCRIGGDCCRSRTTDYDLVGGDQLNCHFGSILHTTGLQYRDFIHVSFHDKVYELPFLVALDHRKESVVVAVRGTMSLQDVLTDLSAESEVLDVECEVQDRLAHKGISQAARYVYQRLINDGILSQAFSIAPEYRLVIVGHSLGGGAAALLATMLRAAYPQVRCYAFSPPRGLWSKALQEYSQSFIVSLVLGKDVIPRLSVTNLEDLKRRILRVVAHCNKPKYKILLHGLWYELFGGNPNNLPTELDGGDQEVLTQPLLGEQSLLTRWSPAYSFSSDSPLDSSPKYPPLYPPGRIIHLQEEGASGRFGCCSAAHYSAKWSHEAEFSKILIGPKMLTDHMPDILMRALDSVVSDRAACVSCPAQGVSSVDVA
# The entries are a selection whose mix differs from that of the whole data set. Some salts and complexes are drawn in separate pieces, as the source files them; their charges need not balance. Active and inactive are the calls of the source. Cut-off read from the data, not from the text of the source: active = inhibition above about 34%; inactive = the rest.
# Biological target: Diacylglycerol lipase-beta (Homo sapiens) (UniProt Q8NCG7)
# Assay: DAGLB lipase inhibitors, primary screen, biochemical, fluorescence, HTS (AID 504411);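 note: 0% = enzyme with vehicle and 100% = wells lacking enzyme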
# Conditions: HEK293T DAGLB membrane lysate, EnzChek fluorogenic substrate; at 5.17 µM; hits give high values
row,Compound,inhibition
1,CCN(CC)CC(O)COC(=O)C(O)(c1ccccc1)C1CCCCC1 (stereo unspecified),inactive: -0.07%
2,COc1ccc(OP(C)(=O)Nc2ccc(Br)cc2)cc1 (stereo unspecified),inactive: -1.17%
3,CP(=O)(Oc1ccccc1)N1CCOC1=O (stereo unspecified),inactive: -1.3%
4,CCc1ccc(OP(C)(=O)Nc2cccnc2)cc1 (stereo unspecified),inactive: -0.15%
5,COc1ccccc1OP(C)(=O)Nc1c(C)n(C)n(-c2ccccc2)c1=O (stereo unspecified),inactive: -1.11%
6,O=C(OCCCN1CCCC1)C(O)(c1ccccc1)C1CCCCC1 (stereo unspecified),inactive: 2.62%
7,CP(=O)(Nc1ccc(Cl)cc1)Oc1ccc(F)cc1 (stereo unspecified),inactive: 0.07%
8,CC(C)(C)c1ccc(OP(C)(=O)O)cc1,inactive: 2.02%
9,COc1ccccc1OP(C)(=O)Nc1ccccc1Br (stereo unspecified),inactive: -0.06%
10,CN(C)C(=O)c1c([N+](=O)[O-])cc([N+](=O)[O-])cc1[N+](=O)[O-],inactive: 2.1%
11,CP(=O)(OC12CC3CC(CC(C3)C1)C2)OC12CC3CC(CC(C3)C1)C2,inactive: -9.89%
12,CCOC(=O)c1ccc(NP(C)(=O)Oc2ccc(Cl)cc2)cc1 (stereo unspecified),inactive: -0.14%
13,O=C1C(O)=C([N+](=O)[O-])C(=O)C(O)=C1[N+](=O)[O-],inactive: -0.83%
14,Cc1cc(C)cc(OP(C)(=O)Nc2cccc(C(F)(F)F)c2)c1 (stereo unspecified),inactive: -0.29%
15,COc1ccc(OP(C)(=O)Nc2ccccc2Br)cc1 (stereo unspecified),inactive: -0.16%
16,COc1ccccc1OP(C)(=O)Nc1ccc(C)c(C)c1 (stereo unspecified),inactive: -2.83%
17,CP(=O)(OCCOc1ccccc1)OCCOc1ccccc1,inactive: -1.23%
18,CCCCCCCCCCCCCCCC1C[N+](C)(C)CCOP(C)(=O)O1 (stereo unspecified),inactive: 2.04%
19,CP(=O)(Nc1ccc(Cl)cc1Cl)Oc1ccccc1 (stereo unspecified),inactive: -1.08%
20,COc1ccccc1OP(C)(=O)Nc1ccc(Br)cc1 (stereo unspecified),inactive: -1.92%
21,CN(C)CCOC(=O)C(O)(c1ccccc1)C1CCCC1 (stereo unspecified),inactive: -1.99%
22,COc1ccc(OP(C)(=O)Nc2ccccn2)cc1 (stereo unspecified),inactive: 0.55%
23,O=[N+]([O-])c1cc([N+](=O)[O-])c(Nc2ccccn2)c([N+](=O)[O-])c1,inactive: 1.51%

row,Compound,inhibition
1,Cc1c(NP(C)(=O)Oc2ccc(C(C)C)cc2)c(=O)n(-c2ccccc2)n1C (stereo unspecified),inactive: 2.63%
2,CCc1ccc(OP(C)(=O)O)cc1,inactive: 1.82%
3,CP(=O)(Nc1ccccn1)Oc1ccccc1 (stereo unspecified),inactive: 1.71%
4,COc1ccccc1OP(C)(=O)Nc1ccc(C)cc1C (stereo unspecified),inactive: -2.95%
5,O=[N+]([O-])c1cc([N+](=O)[O-])c(Nc2ccc(Cl)cc2)c([N+](=O)[O-])c1,inactive: 12.6%
6,CC(C)c1ccc(OP(C)(=O)Nc2ccc(SC(F)(F)F)cc2)cc1 (stereo unspecified),inactive: 0.02%
7,CP(=O)(Nc1ccccc1F)Oc1ccccc1 (stereo unspecified),inactive: 1.36%
8,O=C(OCCN1CCN(CCOCc2ccccc2)CC1)C(O)(c1ccccc1)c1ccccc1,inactive: -1.42%
9,O=C(OC1CN2CCC1CC2)c1ccc([N+](=O)[O-])cc1 (stereo unspecified),inactive: -3.06%
10,COc1ccc2c(c1O)-c1c(O)c(OC)cc3c1[C@H](C2)[N+](C)(C)CC3.O=[N+]([O-])c1cc([N+](=O)[O-])c([O-])c([N+](=O)[O-])c1[O-],inactive: -4.77%
11,COc1ccc(OP(C)(=O)Nc2ccc(SC(F)(F)F)cc2)cc1 (stereo unspecified),inactive: -2.49%
12,CCOC(=O)c1ccc(NP(C)(=O)Oc2ccc(F)cc2)cc1 (stereo unspecified),inactive: -0.2%
13,CCN(CC)CCCOC(=O)C(O)(c1ccccc1)C1CCCCC1 (stereo unspecified),inactive: 1.02%
14,Cc1c([N+](=O)[O-])cc([N+](=O)[O-])c(Br)c1[N+](=O)[O-],inactive: 13.4%
15,CCCCCOc1ccc(NP(C)(=O)Oc2ccc(Cl)cc2Cl)cc1 (stereo unspecified),inactive: -3.48%
16,O=[N+]([O-])c1cc([N+](=O)[O-])c(OC2CCCCC2O)c([N+](=O)[O-])c1 (stereo unspecified),inactive: 5.85%
17,CP(=O)(Nc1ccccc1)Oc1ccc(F)cc1 (stereo unspecified),inactive: -1.92%
18,COc1ccc(OP(C)(=O)Nc2cccc(Br)c2)cc1 (stereo unspecified),inactive: -0.29%
19,COc1ccc(NP(C)(=O)Oc2ccccc2OC)cc1 (stereo unspecified),inactive: 1.42%
20,CN(C)CCOC(=O)C(O)(c1ccccc1)C1CCCCC1 (stereo unspecified),inactive: -1.27%
21,Cc1cc(-c2cccc3ccccc23)c(C)cn1.O=[N+]([O-])c1cc([N+](=O)[O-])c(O)c([N+](=O)[O-])c1,inactive: 0.31%
22,O=[N+]([O-])c1cc([N+](=O)[O-])c(NCC2CCS(=O)(=O)C2)c([N+](=O)[O-])c1 (stereo unspecified),inactive: 3.92%
23,O=[N+]([O-])c1ccc(OP2(=O)COCCO2)cc1 (stereo unspecified),inactive: -0.71%
